## Yeast mating assay 1: variants of the scFv Ab-14

Target: peptide PDVDLGDISGINAS, taken from heptad repeat 2 (HR2) of SARS-CoV-2 spike.

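The parent was found by panning a naive human phage display library on the peptide. Variants in AAYL49 differ from the parent at up to three CDR positions; double and triple changes were sampled at random. The scFvs were displayed on barcoded MATa yeast, the peptide on MATalpha yeast. The frequency of each diploid, read from paired DNA barcodes, reflects how well the two displayed proteins bind. The ratio of observed to expected reads was calibrated, replicate by replicate, on BCL2-family standards whose Kd was known from biolayer interferometry. There are three technical replicates.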

Each scFv is VH, a (GGGGS)3 linker, VL, as in the parent Ab-14, and differs from it in the CDRs of the heavy chain only.
VH: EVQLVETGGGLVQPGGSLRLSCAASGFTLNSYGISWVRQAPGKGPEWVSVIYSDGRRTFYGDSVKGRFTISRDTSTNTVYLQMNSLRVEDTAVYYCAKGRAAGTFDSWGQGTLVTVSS
VL: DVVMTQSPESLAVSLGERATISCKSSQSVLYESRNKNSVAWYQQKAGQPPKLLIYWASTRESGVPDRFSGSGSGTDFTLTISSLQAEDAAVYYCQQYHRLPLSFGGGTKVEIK

Positions count from residue 1 of the parent VH; N30V puts V in place of N.
Scale: log10 of Kd in nM, estimated from mating counts; low values are strong binders.
"ND" marks a missing value. The strain was present, yet no cells mated with the target were sequenced in that replicate, which points to weak or no binding.

changes	log10 Kd (nM) by replicate	control signals
N30V+V50H+T104A	5.14 / 4.15 / ND	1 of 9 (5.83)
S53N+G99T+F105P	ND / ND / ND	3 of 9 (3.66)
F27D+D62E+R100W	ND / ND / ND	1 of 9 (3.85)
V64I+G103Q+D106I	ND / ND / ND	0 of 9
G33K+F59M+A102Y	ND / ND / ND	0 of 9
Y60C+S63V+G103A	ND / ND / ND	1 of 9 (3.92)
G55T+V64N+K65L	ND / ND / ND	1 of 9 (3.52)
I34Q+A101R+D106H	ND / ND / ND	0 of 9
G33S+R100G	ND / 5.05 / 4.87	0 of 9
R56E+V64L+K65Q	3.69 / 3.19 / 4.03	1 of 9 (4.95)
R56W+R100I+S107W	2.51 / 2.55 / 2.05	4 of 9 (4.10)
T28W+V50D+S53N	3.00 / ND / ND	0 of 9
F27W+N30P+G61C	ND / 4.82 / ND	0 of 9
I34N+D54A+A102F	ND / ND / ND	3 of 9 (3.96)
S53M+R56S+V64T	ND / ND / ND	0 of 9
I34M+Y52Q	ND / ND / ND	3 of 9 (4.77)
F59P+V64R+F105E	ND / ND / 4.18	2 of 9 (3.29)
G33D+D62P+A101Y	2.61 / 2.31 / 2.35	2 of 9 (4.16)
S35C+R56T+A101P	ND / 3.32 / ND	2 of 9 (3.44)
F27N+I34V+A101F	2.77 / 1.59 / ND	0 of 9
T28W+R56M+T104V	2.23 / 2.55 / 4.18	1 of 9 (3.52)
N30I+R100K+A102I	ND / ND / ND	0 of 9
G61D+V64Q+T104Q	ND / ND / ND	0 of 9
G26E+R56D+Y60F	ND / ND / ND	1 of 9 (3.06)
L29V+D54R+S63D	ND / ND / ND	2 of 9 (3.99)
N30C+D54L+G99V	ND / ND / ND	1 of 9 (4.23)
S31E+I34D+A102H	ND / ND / ND	0 of 9
F27G+S63T+T104Q	3.13 / 2.66 / 4.24	5 of 9 (4.29)
R56A+R57H+T58C	ND / ND / ND	0 of 9
F59E+S63M+T104S	2.55 / 2.34 / 2.96	1 of 9 (3.86)
I34Y+I51N+V64M	ND / ND / ND	4 of 9 (3.90)
T28R+A102E	2.57 / 2.62 / 3.48	1 of 9 (4.90)
G61M+D62M+D106W	ND / 3.95 / ND	3 of 9 (4.51)
V50I+I51N+T104P	ND / 3.19 / 2.70	0 of 9
R57K+G61Q+K65Q	2.20 / 2.39 / 2.77	3 of 9 (4.98)
V64T+R100W+A102P	ND / ND / ND	0 of 9
G99P+F105H+D106R	0.65 / 0.90 / 0.71	0 of 9
G26D+Y52V+S107N	4.27 / ND / ND	1 of 9 (4.03)
Y60H+S63T+G103T	2.40 / 3.44 / 4.00	0 of 9
G33F+V64L	ND / ND / ND	0 of 9
G26A+A101H+F105N	4.21 / ND / ND	2 of 9 (3.87)
F27H+G33S+G103S	ND / 4.36 / ND	1 of 9 (4.44)
D54N+R56L+A101N	3.09 / 2.35 / 2.32	0 of 9
L29W+F59A	ND / 2.03 / ND	0 of 9

Extract of 7 entries:

changes	log10 Kd (nM) by replicate	control signals
G61M+D62M+D106W	ND / 3.95 / ND	3 of 9 (4.51)
F27D+D62E+R100W	ND / ND / ND	1 of 9 (3.85)
T28R+A102E	2.57 / 2.62 / 3.48	1 of 9 (4.90)
S35C+R56T+A101P	ND / 3.32 / ND	2 of 9 (3.44)
L29V+D54R+S63D	ND / ND / ND	2 of 9 (3.99)
S53N+G99T+F105P	ND / ND / ND	3 of 9 (3.66)
S31E+I34D+A102H	ND / ND / ND	0 of 9

In this assay the parent's reference entry averaged 0.65; its copy inside this library read 4.11 (one replicate of three).
As a blank, each scFv also met three strains without target: over library AAYL49, 15% of these pairings were detected, typically at 4.06 and seldom below 2.83. Also given: how often the same scFv was detected with the empty control strains, with their mean in brackets.

Data: MIT Lincoln Laboratory AlphaSeq set, Engelhart et al. 2022, doi:10.1038/s41597-022-01779-4, as distributed in FLAb.